# Yeast mating assay 1: variants of the scFv Ab-14

Values reported by Engelhart et al. 2022, doi:10.1038/s41597-022-01779-4 (FLAb copy).

All variants were tested on one target, the spike HR2 peptide PDVDLGDISGINAS (SARS-CoV-2).

Each scFv is VH, a (GGGGS)3 linker, VL, as in the parent Ab-14, and differs from it in the CDRs of the light chain only.
VH: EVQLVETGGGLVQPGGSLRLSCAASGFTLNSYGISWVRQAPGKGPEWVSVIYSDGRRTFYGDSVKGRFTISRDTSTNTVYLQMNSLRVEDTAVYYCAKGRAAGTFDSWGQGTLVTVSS
VL: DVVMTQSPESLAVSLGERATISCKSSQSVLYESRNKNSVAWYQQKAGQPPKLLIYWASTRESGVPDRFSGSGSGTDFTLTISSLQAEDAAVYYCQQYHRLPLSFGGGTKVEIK

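Phage display of a naive human antibody library on the peptide gave the parent. In library AAYL50, one, two or three CDR residues were substituted; doubles and triples were drawn at random. The scFvs were displayed on barcoded MATa yeast, the peptide on MATalpha yeast. After mating in shaken culture at 30 °C for 16 h, diploids were selected and their barcode pairs sequenced. Scores were corrected for input abundance and mapped to Kd with protein pairs of known affinity run in the same pool. Mating was done three times.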

Each variant is given by its three light chain CDRs, as the data file delimits them; those of the parent are KSSQSVLYESRNKNSVA, WASTRES, QQYHRLPLS. This list gathers variants with a substitution at R34 (VL, numbered from residue 1). The read-out is the apparent dissociation constant on a log10 scale (nM): the lower, the stronger. The mean shown is taken over the replicates in which the pair was detected. "nd" means that the variant was in the library but no mating with the target was seen in any replicate; the authors take this as a sign of poor binding, and no number exists. In this assay the parent's reference entry averaged 0.65; its copy inside this library read 1.68. Empty control strains, which show no peptide, gave a signal in 18% of pairings with library AAYL50; the median was 4.19 and 95% of these signals were weaker than 2.99. No background was subtracted. The control count says in how many pairings with the empty strains this scFv gave a signal.

With KSSQSVLYESMNKQSVA, WASTRES, QQYHVLPLS the result was 1.70 (3 of 3 replicates; controls 3 of 9).
With KSSGSVLYESLNKNSVA, PASTRES, QQYHRLPLS the result was nd (0 of 3 replicates; controls 0 of 9).
With KSSQSVLYESNNKNSVA, WASDRES, QQYHRLPDS the result was nd (0 of 3 replicates; controls 0 of 9).
With KSSQSVLYESMNKNCVA, WASTRES, QQYHRLPLC the result was 1.88 (3 of 3 replicates; controls 2 of 9).
With KSSQSVLYESENKNSVA, WASTRES, QAYERLPLS the result was 0.14 (3 of 3 replicates; controls 0 of 9).
With KSSQSVLYESVNKNSVA, WASTRES, EQYHRLDLS the result was 1.65 (3 of 3 replicates; controls 1 of 9).
With KSSQMVLYESKPKNSVA, WASTRES, QQYHRLPLS the result was 1.52 (3 of 3 replicates; controls 4 of 9).
With KSSQSVLYESFNKKSVA, WASTRES, QQYKRLPLS the result was 1.82 (3 of 3 replicates; controls 3 of 9).
With KSSQSVLYESCNKNSVA, WASTRES, QQYHRAPLS the result was 1.75 (1 of 3 replicates; controls 0 of 9).
With KSSQTVLYESVNKNMVA, WASTRES, QQYHRLPLS the result was 2.40 (3 of 3 replicates; controls 3 of 9).
With KSSFSVLYESWNKNSVA, WASTRES, QQYHWLPLS the result was 2.33 (3 of 3 replicates; controls 4 of 9).
With KSSQSVLYESDDKNSVA, WASTRES, QQYHRLPLG the result was 1.03 (3 of 3 replicates; controls 2 of 9).
With KSSQSVLYESINKESVA, WAVTRES, QQYHRLPLS the result was 4.15 (2 of 3 replicates; controls 1 of 9).
With KSSQSVLYESENKNEVA, WASTRES, QQYHRLMLS the result was 1.47 (1 of 3 replicates; controls 1 of 9).
With KSSQSVLYFSCNKNSVA, WASTRAS, QQYHRLPLS the result was 1.92 (3 of 3 replicates; controls 1 of 9).
With KSSQSVLYESFNKNSVA, WASTRPS, QQYHRLPLS the result was 1.45 (3 of 3 replicates; controls 0 of 9).
With ASSGSVLYESVNKNSVA, WASTRES, QQYHRLPLS the result was 3.27 (2 of 3 replicates; controls 0 of 9).
With KSSQSVLYESDNKNSVA, WASTRES, QQYHRLYLS the result was nd (0 of 3 replicates; controls 0 of 9).
With KSQQSYLYESNNKNSVA, WASTRES, QQYHRLPLS the result was 1.43 (3 of 3 replicates; controls 1 of 9).
With KSSFSVLYESYNKNSVA, WASTFES, QQYHRLPLS the result was 5.52 (1 of 3 replicates; controls 3 of 9).
With KSSQSVLYESSNKNSGA, WASTRES, QQYHRLNLS the result was nd (0 of 3 replicates; controls 0 of 9).
With KSSQSVLYESCNKNSVA, WASTRES, QQLHRLPLS the result was 3.30 (3 of 3 replicates; controls 0 of 9).
With KSSQMVLYESGNKNSVA, WDSTRES, QQYHRLPLS the result was 1.40 (3 of 3 replicates; controls 5 of 9).
With KSSQSVLYESPNKNSVA, WAATRES, QFYHRLPLS the result was 3.35 (3 of 3 replicates; controls 2 of 9).
With KSSQSVLYECHNKNSVA, WASTRES, PQYHRLPLS the result was 3.49 (1 of 3 replicates; controls 2 of 9).
With PSSQSVLYESPNKNSVA, WASTRES, QQYHRLKLS the result was 3.62 (1 of 3 replicates; controls 1 of 9).
With KPSQSVLYESQNKNSVH, WASTRES, QQYHRLPLS the result was 3.94 (1 of 3 replicates; controls 3 of 9).
With KSSKSLLYESNNKNSVA, WASTRES, QQYHRLPLS the result was 1.26 (3 of 3 replicates; controls 2 of 9).
With KSSQSVLYESLMKNSVA, WASTRES, QQYHRLPLS the result was 0.55 (3 of 3 replicates; controls 7 of 9).
With KSSQSVLYESSAKNSVA, WLSTRES, QQYHRLPLS the result was 2.85 (2 of 3 replicates; controls 0 of 9).

Extract of 2 entries:

| CDR-L1 | CDR-L2 | CDR-L3 | mean, log10 nM | replicates with signal | control signals |
|---|---|---|---|---|---|
| KSSQSVLYESFNKNSVA | WASTRPS | QQYHRLPLS | 1.45 | 3 of 3 | 0 of 9 |
| KSSQSVLYESMNKNCVA | WASTRES | QQYHRLPLC | 1.88 | 3 of 3 | 2 of 9 |